From patent US20090175786A1 (published 2009)

Sequences of proteins named here, by UniProt entry; tags and fusion partners are left off. A change or cut given only in a name is not applied to a line headed by its entry.
UniProt P30550: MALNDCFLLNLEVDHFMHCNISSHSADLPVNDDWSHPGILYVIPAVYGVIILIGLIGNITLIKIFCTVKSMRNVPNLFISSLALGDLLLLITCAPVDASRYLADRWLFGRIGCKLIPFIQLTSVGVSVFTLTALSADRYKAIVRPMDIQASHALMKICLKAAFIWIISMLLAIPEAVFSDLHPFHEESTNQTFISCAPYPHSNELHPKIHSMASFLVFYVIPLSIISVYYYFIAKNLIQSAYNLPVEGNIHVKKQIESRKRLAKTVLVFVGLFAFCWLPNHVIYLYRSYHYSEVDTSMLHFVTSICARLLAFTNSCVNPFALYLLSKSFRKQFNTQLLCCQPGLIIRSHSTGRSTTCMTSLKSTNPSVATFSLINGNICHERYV

T1: neuromedin-B preferring receptor (NMB-R) of C6 rodent glioblastoma cells (rodent, UniProt P24053 1-390, limits assumed)
T1 construct: whole, on cells; also called C6/NMB-R
T1 sequence (looked up): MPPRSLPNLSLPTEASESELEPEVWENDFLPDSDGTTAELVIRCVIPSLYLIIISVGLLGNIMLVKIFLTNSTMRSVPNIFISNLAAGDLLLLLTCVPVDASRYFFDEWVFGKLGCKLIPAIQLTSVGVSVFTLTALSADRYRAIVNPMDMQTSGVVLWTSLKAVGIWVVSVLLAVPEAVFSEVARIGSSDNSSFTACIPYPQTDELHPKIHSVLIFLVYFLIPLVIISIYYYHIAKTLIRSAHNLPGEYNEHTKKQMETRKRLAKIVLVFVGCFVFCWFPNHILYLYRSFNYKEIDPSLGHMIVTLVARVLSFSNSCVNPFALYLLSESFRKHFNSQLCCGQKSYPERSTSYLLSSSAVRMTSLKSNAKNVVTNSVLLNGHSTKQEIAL

B1: N,N-dimethylglycine-Ser-Cys(Acm)-Gly-SK-QWAVGHLM-NH2 (peptide)
peptide: GSCGSKQWAVGHLM
modifications: residue 1 is N,N-dimethylglycine; Cys 3 S-acetamidomethyl (Acm); C-terminal amide
B2: DO3A-monoamide-Cha-Cha-QWAVGHLM-NH2 (peptide)
peptide: QWAVGHLM
modifications: N-terminus: DO3A-monoamide-Cha-Cha (Cha = L-Cyclohexylalanine); C-terminal amide
B3: N,N-dimethylglycine-Ser-Cys(Acm)-Gly-N-1-piperazineacetic acid-8-amino-3,6-dioxaoctanoic acid-BBN(7-14) (peptide)
peptide: QWAVGHLM
modifications: N-terminus: N,N-dimethylglycine-Ser-Cys(Acm)-Gly-N-1-piperazineacetic acid-8-amino-3,6-dioxaoctanoic acid; C-terminal amide
notes: also called L36
B4: DO3A-monoamide-Nal1-Bpa4-QWAVGHLM-NH2 (peptide)
peptide: QWAVGHLM
modifications: N-terminus: DO3A-monoamide-Nal1-Bpa4 (L-1-Naphthylalanine, 4-benzoylphenylalanine); C-terminal amide
B5: DO3A-monoamide-trans-4-aminomethylcyclohexane-1-carboxylic acid-Lys-BBN(7-14) (peptide)
peptide: KQWAVGHLM
modifications: N-terminus: DO3A-monoamide-trans-4-aminomethylcyclohexane-1-carboxylic acid; C-terminal amide
notes: also called L99
B6: DO3A-monoamide-trans-4-aminomethylcyclohexane-1-carboxylic acid-D-phenylalanine-BBN(7-14) (peptide)
peptide: FQWAVGHLM
modifications: N-terminus: DO3A-monoamide-trans-4-aminomethylcyclohexane-1-carboxylic acid; residue 1 is D-Phe; C-terminal amide
notes: also called L95
B7: N,N-dimethylglycine-Ser-Cys(Acm)-Gly-8-amino-3,6-dioxaoctanoic acid-2,3-diaminopropionic acid-Gly-BBN(7-14) (peptide)
peptide: GQWAVGHLM
modifications: N-terminus: N,N-dimethylglycine-Ser-Cys(Acm)-Gly-8-amino-3,6-dioxaoctanoic acid-2,3-diaminopropionic acid; C-terminal amide
notes: same M-N-O-P-G as printed for L59, other MS; also called L24
B8: N,N-dimethylglycine-Ser-Cys(Acm)-Gly-2,3-diaminopropionic acid-8-amino-3,6-dioxaoctanoic acid-Gly-BBN(7-14) (peptide)
peptide: GQWAVGHLM
modifications: N-terminus: N,N-dimethylglycine-Ser-Cys(Acm)-Gly-2,3-diaminopropionic acid-8-amino-3,6-dioxaoctanoic acid; C-terminal amide
notes: same M-N-O-P-G as printed for L26, other MS; also called L61
B9: N,N-dimethylglycine-Ser-Cys(Acm)-Gly-8-amino-3,6-dioxaoctanoic acid-2,3-diaminopropionic acid-Gly-BBN(7-14) (peptide)
peptide: GQWAVGHLM
modifications: N-terminus: N,N-dimethylglycine-Ser-Cys(Acm)-Gly-8-amino-3,6-dioxaoctanoic acid-2,3-diaminopropionic acid; C-terminal amide
notes: same M-N-O-P-G as printed for L24, other MS; also called L59
B10: N,N-dimethylglycine-Ser-Cys(Acm)-Gly-Arg-8-amino-3,6-dioxaoctanoic acid-Gly-BBN(7-14) (peptide)
peptide: GQWAVGHLM
modifications: N-terminus: N,N-dimethylglycine-Ser-Cys(Acm)-Gly-Arg-8-amino-3,6-dioxaoctanoic acid; C-terminal amide
notes: also called L52
B11: N,N-dimethylglycine-Ser-Cys(Acm)-Gly-N-4-aminoethyl-N-1-piperazineacetic acid-Lys-BBN(7-14) (peptide)
peptide: KQWAVGHLM
modifications: N-terminus: N,N-dimethylglycine-Ser-Cys(Acm)-Gly-N-4-aminoethyl-N-1-piperazineacetic acid; C-terminal amide
notes: also called L32
B12: N,N-dimethylglycine-Ser-Cys(Acm)-Gly-8-amino-3,6-dioxaoctanoic acid-Dala-BBN(7-14) (peptide)
peptide: AQWAVGHLM
modifications: N-terminus: N,N-dimethylglycine-Ser-Cys(Acm)-Gly-8-amino-3,6-dioxaoctanoic acid; residue 1 is D-Ala; C-terminal amide
notes: also called L14
B13: N,N-dimethylglycine-Ser-Cys(Acm)-Gly-8-amino-3,6-dioxaoctanoic acid-Ser-BBN(7-14) (peptide)
peptide: SQWAVGHLM
modifications: N-terminus: N,N-dimethylglycine-Ser-Cys(Acm)-Gly-8-amino-3,6-dioxaoctanoic acid; C-terminal amide
notes: also called L11
B14: N,N-dimethylglycine-Ser-Cys(Acm)-Gly-N-1-piperazineacetic acid-Ser-BBN(7-14) (peptide)
peptide: SQWAVGHLM
modifications: N-terminus: N,N-dimethylglycine-Ser-Cys(Acm)-Gly-N-1-piperazineacetic acid; C-terminal amide
notes: also called L34
B15: N,N-dimethylglycine-Ser-Cys(Acm)-Gly-N-1-piperazineacetic acid-Arg-BBN(7-14) (peptide)
peptide: RQWAVGHLM
modifications: N-terminus: N,N-dimethylglycine-Ser-Cys(Acm)-Gly-N-1-piperazineacetic acid; C-terminal amide
notes: also called L35
B16: N,N-dimethylglycine-Ser-Cys(Acm)-Gly-N-4-aminoethyl-N-1-piperazineacetic acid-Arg-BBN(7-14) (peptide)
peptide: RQWAVGHLM
modifications: N-terminus: N,N-dimethylglycine-Ser-Cys(Acm)-Gly-N-4-aminoethyl-N-1-piperazineacetic acid; C-terminal amide
notes: also called L29
B17: N,N-dimethylglycine-Ser-Cys(Acm)-Gly-8-amino-3,6-dioxaoctanoic acid-Arg-Gly-BBN(7-14) (peptide)
peptide: RGQWAVGHLM
modifications: N-terminus: N,N-dimethylglycine-Ser-Cys(Acm)-Gly-8-amino-3,6-dioxaoctanoic acid; C-terminal amide
notes: same M-N-O-P-G as printed for L57, other MS; also called L22
B18: N,N-dimethylglycine-Ser-Cys(Acm)-Gly-8-amino-3,6-dioxaoctanoic acid-Asp-Gly-BBN(7-14) (peptide)
peptide: DGQWAVGHLM
modifications: N-terminus: N,N-dimethylglycine-Ser-Cys(Acm)-Gly-8-amino-3,6-dioxaoctanoic acid; C-terminal amide
notes: same M-N-O-P-G as printed for L55, other MS; also called L20
B19: N,N-dimethylglycine-Ser-Cys(Acm)-Gly-8-amino-3,6-dioxaoctanoic acid-Asp-Gly-BBN(7-14) (peptide)
peptide: DGQWAVGHLM
modifications: N-terminus: N,N-dimethylglycine-Ser-Cys(Acm)-Gly-8-amino-3,6-dioxaoctanoic acid; C-terminal amide
notes: same M-N-O-P-G as printed for L20, other MS; also called L55

target: T1, neuromedin-B preferring receptor …; assay: 125I-NMB competition, C6 cells

| IC50 [nM] | Binder |
| --- | --- |
| 18.9 | QWAVGHLM (N-terminus: DO3A-monoamide-3-aminopropionic acid (Apa3); C-terminal amide) [DO3A-monoamide-Apa3-QWAVGHLM-NH2] |
| 2.2 | B1 |
| 77 | B2 |
| 12.1 | B3 |
| 89.9 | B4 |
| 5.2 | QWAVGHLM (N-terminus: DO3A-monoamide-4-aminobutanoic acid (Abu4); C-terminal amide) [DO3A-monoamide-Abu4-QWAVGHLM-NH2] |

target: T2, gastrin releasing peptide receptor (GRP-R), human (human, UniProt P30550 1-384); assay: 125I-BBN competition, PC3 cells
T2 construct: whole, on cells; also called GRP receptor; GRP-preferring receptor

| IC50 [nM] | Binder |
| --- | --- |
| 22 | B5 |
| 14 | B6 |

target: T2, gastrin releasing peptide receptor …; assay: 125I-BBN competition, PC3 cells; remark: another data set of the same source

| IC50 [nM] | Binder |
| --- | --- |
| 38 | B7 |
| 43 | B8 |
| 42 | B9 |
| 14 | B10 |
| 34 | B11 |
| 11 | B12 |
| 36 | B13 |
| 38 | B14 |
| 26 | B15 |
| 36 | B16 |
| 36 | B17 |
| 37 | B18 |
| 43 | B19 |
